# Test results reported in patent US5278143A, “Prophylactic and therapeutic methods for treating interleukin-mediated edemas” (Trustees of Boston University, priority 1991, dated 1994).
# Tested on: IL-2 induced edema
# Assay: IL-2 induced vascular leak syndrome, organ wet to dry (W/D) weight ratios
# Type: in vivo, rats
substance,measurement,setting,value
Interleukin-2: lymphokine which mediates the proliferation of T-cells; used to induce vascular leak syndrome,Kidney wet to dry ratio (renal edema),"10^5 U/l Interleukin-2 alone, FIG. 2",did not produce any significant renal edema
same,Spleen wet to dry ratio (splenic edema),"10^5 U/ml Interleukin-2 alone, FIG. 1",did not produce any significant splenic edema
same,Liver wet to dry ratio (hepatic edema),"10^5 U/ml Interleukin-2 alone, FIG. 3",did not produce any significant hepatic edema
same,Heart wet to dry weight ratio (cardiac edema),"10^5 U/ml Interleukin-2 alone, FIG. 4",did not produce any significant cardiac edema
same,Lung wet to dry weight ratio (pulmonary edema),"10^5 U/ml Interleukin-2 alone, FIG. 5",did not produce any significant pulmonary edema
same,Spleen wet to dry ratio (splenic edema),"10^6 U/ml IL-2, FIG. 1, listed as IL-2",failed to induce splenic edema; also recorded: No significant changes over controls
same,Kidney wet to dry ratio (renal edema),"10^6 U/ml IL-2, FIG. 2, listed as IL-2",produced a significant increase in edema; also recorded: produces edema
same,Liver wet to dry ratio (hepatic edema),"10^6 U/ml IL-2, FIG. 3, listed as IL-2",produced no significant increase in edema; also recorded: No significant changes over controls
same,Lung wet to dry weight ratio (pulmonary edema),"10^6 U/ml IL-2, FIG. 5, listed as IL-2",produced a significant (p<0.01) increase in edema; also recorded: produces edema
same,Heart wet to dry weight ratio (cardiac edema),"10^6 U/mml IL-2, FIG. 4, listed as IL-2",produced a significant (p<0.01) increase in edema; also recorded: produces edema

# “Also recorded” adds a separate entry of the source.
